The results in this text go back to ChEMBL document CHEMBL4680082 (J Med Chem, 2016).

The chains behind the UniProt entries cited, without tags or fusion partners. Where a name states a change or a piece, a line headed by the entry shows the natural chain unless it says otherwise.
UniProt P28335: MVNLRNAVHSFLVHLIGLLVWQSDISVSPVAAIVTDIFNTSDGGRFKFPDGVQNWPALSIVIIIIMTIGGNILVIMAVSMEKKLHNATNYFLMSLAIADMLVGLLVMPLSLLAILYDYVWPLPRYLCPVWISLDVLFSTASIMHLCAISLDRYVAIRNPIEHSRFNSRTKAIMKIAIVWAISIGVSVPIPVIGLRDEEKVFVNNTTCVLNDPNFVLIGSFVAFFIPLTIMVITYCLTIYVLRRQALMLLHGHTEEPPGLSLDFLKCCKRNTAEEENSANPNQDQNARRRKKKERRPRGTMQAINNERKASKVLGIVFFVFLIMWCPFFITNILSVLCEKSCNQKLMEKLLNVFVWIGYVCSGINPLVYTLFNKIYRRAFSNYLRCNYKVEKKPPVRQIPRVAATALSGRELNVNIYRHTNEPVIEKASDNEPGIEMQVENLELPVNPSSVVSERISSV
UniProt P28223, whole entry: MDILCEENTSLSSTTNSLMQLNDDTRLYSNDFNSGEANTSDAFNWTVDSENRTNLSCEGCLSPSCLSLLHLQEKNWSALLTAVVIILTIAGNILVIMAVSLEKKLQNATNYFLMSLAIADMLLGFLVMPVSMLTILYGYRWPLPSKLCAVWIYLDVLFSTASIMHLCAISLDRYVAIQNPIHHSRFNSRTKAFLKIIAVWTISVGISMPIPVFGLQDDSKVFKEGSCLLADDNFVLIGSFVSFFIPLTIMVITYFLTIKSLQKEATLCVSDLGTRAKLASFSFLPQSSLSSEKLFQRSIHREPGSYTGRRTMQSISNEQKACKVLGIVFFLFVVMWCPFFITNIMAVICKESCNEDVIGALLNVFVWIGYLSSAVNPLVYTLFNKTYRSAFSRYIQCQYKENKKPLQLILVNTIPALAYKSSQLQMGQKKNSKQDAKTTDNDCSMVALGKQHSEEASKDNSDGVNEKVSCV
UniProt P41595, whole entry: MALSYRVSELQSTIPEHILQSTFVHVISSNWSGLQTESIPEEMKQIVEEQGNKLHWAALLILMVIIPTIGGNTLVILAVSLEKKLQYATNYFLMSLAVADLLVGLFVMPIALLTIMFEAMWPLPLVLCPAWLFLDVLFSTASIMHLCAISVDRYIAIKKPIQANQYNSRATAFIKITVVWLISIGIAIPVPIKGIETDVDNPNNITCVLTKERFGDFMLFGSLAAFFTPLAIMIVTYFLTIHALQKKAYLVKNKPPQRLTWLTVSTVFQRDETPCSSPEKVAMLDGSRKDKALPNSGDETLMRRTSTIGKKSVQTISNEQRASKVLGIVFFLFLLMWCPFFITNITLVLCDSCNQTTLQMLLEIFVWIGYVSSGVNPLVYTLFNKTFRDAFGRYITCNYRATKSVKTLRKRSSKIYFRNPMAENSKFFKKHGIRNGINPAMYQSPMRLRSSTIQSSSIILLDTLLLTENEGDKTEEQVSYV

Activity calls are given as the source filed them. No cut-off for these calls is given here.

Assay type in all cases: functional, cell-based
What all share (details): dose microM <=10, time 1.0 hrs

Assay [1] addresses 5-hydroxytryptamine receptor 2C (Homo sapiens, UniProt P28335). Put plainly: Agonist activity at human 5-HT2C receptor expressed in human Flp-In-293 cells assessed as induction of calcium flux up to 10 uM incubated for 1 hr by Fluo-4 direct dye based FLIPR assay. In general terms: Calcium flux is commonly read through the fluorescence of an indicator in the cells.
Assay [2] addresses 5-hydroxytryptamine receptor 2A (Homo sapiens, UniProt P28223). Nature of the assay: Agonist activity at human 5-HT2A receptor expressed in human Flp-In-293 cells assessed as induction of calcium flux up to 10 uM incubated for 1 hr by Fluo-4 direct dye based FLIPR assay.
Assay [3] deals with 5-hydroxytryptamine receptor 2B (Homo sapiens, UniProt P41595). Nature of the assay: Agonist activity at human 5-HT2B receptor expressed in human Flp-In-293 cells assessed as induction of calcium flux up to 10 uM incubated for 1 hr by Fluo-4 direct dye based FLIPR assay.

For the compound `C=CCOc1ccc2oc(CC)cc2c1[C@@H]1C[C@H]1CN`, the outcome in assay [1], in assay [2] and in assay [3] was inactive.
Consider `NC[C@@H]1C[C@H]1c1c(OCC2CC2)ccc2occc12`, for which the outcome in assay [2] was inactive.
In the case of `NC[C@@H]1C[C@H]1c1c(OCCF)ccc2c1CCO2`, in assay [3], the result was inactive.
Take `CCCOc1ccc2occc2c1[C@@H]1C[C@H]1CN`: the outcome in assay [2] and in assay [3] was inactive.
As to `C=CCOc1ccc2c(c1[C@@H]1C[C@H]1CN)CCO2`, the result in assay [2] and in assay [3] was inactive.
Consider `C=CCOc1ccc2oc(CC)cc2c1[C@H]1C[C@@H]1CN`, for which the outcome in assay [2] was inactive.
For `CCc1cc2c([C@@H]3C[C@H]3CN)c(OCC3CC3)ccc2o1`, the outcome in assay [2] and in assay [3] was inactive.
Consider `CCCOc1ccc2oc(CC)cc2c1[C@H]1C[C@@H]1CN`, for which the outcome in assay [2] and in assay [3] was inactive.
Consider `NC[C@@H]1C[C@H]1c1c(OCC2CC2)ccc2c1CCO2`, for which the outcome in assay [2] and in assay [3] was inactive.
In the case of `NC[C@H]1C[C@@H]1c1c(OCCF)ccc2c1CCO2`, the outcome in assay [3] was inactive.
As to `CCOc1ccc2oc(CC)cc2c1[C@@H]1C[C@H]1CN`, the outcome in assay [2] and in assay [3] was inactive.
For `CCOc1ccc2occc2c1[C@@H]1C[C@H]1CN`, in assay [3], the outcome was inactive.
As to `C=C(C)COc1ccc2occc2c1[C@@H]1C[C@H]1CN`, the outcome in assay [2] was inactive.
For the compound `CCc1cc2c([C@@H]3C[C@H]3CN)c(OCCF)ccc2o1`, the result in assay [2] and in assay [3] was inactive.
As to `CCCOc1ccc2oc(CC)cc2c1[C@@H]1C[C@H]1CN`, the outcome in assay [1], in assay [2] and in assay [3] was inactive.
For `CCc1cc2c([C@@H]3C[C@H]3CN)c(OC)ccc2o1`, the result in assay [2] and in assay [3] was inactive.
`C=C(F)COc1ccc2occc2c1[C@@H]1C[C@H]1CN`: the result in assay [2] was inactive.
With `CCCOc1ccc2c(c1[C@@H]1C[C@H]1CN)CCO2`, the result in assay [2] and in assay [3] was inactive.
On to `C=CCOc1ccc2occc2c1[C@@H]1C[C@H]1CN`, for which the result in assay [2] and in assay [3] was inactive.
With `CCc1cc2c([C@H]3C[C@@H]3CN)c(OCC3CC3)ccc2o1`, the result in assay [2] and in assay [3] was inactive.
For `CCCOc1ccc2occc2c1[C@H]1C[C@@H]1CN`, the result in assay [3] was inactive.
